The text below walks through data of PMC2847587 (Molecular cell, 2010).

Where only a bound is given, the exact number is not on record here.

This experiment deals with T1, FANCA (human (endogenous in HeLa), UniProt O15360 1-1455).
T1 sequence (looked up): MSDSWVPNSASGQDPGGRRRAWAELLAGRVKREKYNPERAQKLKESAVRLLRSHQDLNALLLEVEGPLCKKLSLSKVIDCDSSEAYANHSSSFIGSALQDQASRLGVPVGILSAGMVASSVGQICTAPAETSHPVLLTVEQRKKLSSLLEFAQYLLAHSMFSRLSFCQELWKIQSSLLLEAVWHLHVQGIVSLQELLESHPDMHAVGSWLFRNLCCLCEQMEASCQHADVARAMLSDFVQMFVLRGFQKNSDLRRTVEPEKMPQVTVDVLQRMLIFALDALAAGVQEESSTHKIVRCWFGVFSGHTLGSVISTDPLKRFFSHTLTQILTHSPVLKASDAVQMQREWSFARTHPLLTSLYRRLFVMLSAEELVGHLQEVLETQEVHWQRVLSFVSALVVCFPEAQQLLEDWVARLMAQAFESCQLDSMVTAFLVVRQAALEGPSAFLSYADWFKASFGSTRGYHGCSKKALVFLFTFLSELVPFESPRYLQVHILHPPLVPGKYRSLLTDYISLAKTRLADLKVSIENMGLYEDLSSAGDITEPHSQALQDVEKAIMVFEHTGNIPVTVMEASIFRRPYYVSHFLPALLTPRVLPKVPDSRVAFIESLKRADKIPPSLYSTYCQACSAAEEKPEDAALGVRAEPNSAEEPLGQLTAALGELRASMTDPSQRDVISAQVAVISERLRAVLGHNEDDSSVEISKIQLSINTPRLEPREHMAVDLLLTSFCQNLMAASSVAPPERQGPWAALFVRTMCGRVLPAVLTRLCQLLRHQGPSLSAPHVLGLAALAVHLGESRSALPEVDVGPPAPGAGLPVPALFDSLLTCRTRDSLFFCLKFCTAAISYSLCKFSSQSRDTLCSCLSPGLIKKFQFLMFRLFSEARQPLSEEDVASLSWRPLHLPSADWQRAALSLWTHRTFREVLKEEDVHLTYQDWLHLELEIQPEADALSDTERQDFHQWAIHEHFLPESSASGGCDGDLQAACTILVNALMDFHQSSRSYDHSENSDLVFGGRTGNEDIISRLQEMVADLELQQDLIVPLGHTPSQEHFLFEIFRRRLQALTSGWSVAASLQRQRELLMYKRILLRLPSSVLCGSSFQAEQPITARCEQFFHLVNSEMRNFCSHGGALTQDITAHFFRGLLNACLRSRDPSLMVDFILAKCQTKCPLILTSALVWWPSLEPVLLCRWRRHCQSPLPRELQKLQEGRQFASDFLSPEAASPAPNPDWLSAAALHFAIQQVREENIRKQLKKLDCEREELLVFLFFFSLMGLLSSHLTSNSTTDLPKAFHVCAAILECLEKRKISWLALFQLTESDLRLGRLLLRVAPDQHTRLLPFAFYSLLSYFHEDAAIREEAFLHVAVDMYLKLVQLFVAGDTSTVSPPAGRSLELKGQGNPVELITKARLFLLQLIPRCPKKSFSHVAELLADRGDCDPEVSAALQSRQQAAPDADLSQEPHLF
Nature of the experiment: immunodepletion.

B1: MHF2 (FANCM-associated Histone Fold protein 2) (natural protein, human (endogenous in HeLa), UniProt A8MT69 1-81, looked up)
chain: MEGAGAGSGFRKELVSRLLHLHFKDDKTKVSGDALQLMVELLKVFVVEAAVRGVRQAQAEDALRVDVDQLEKVLPQLLLDF
B1 registered a percent co-depleted of less than 30%.

B2: MHF1 (FANCM-associated Histone Fold protein 1) (natural protein, human (endogenous in HeLa), UniProt Q8N2Z9-1 1-138, looked up)
chain: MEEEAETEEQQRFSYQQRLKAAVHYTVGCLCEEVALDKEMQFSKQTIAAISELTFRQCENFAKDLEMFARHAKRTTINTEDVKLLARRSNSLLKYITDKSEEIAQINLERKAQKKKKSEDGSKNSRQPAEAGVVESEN
On to B2, for which the percent co-depleted is less than 30%.
